Yeast mating assay B: variants of the scFv Ab-14

Antigen: PDVDLGDISGINAS, a 14-residue peptide of the SARS-CoV-2 spike HR2 region.

Parent scFv Ab-14: VH joined to VL by a 15-residue (Gly4Ser)3 linker. Changes lie in the light chain CDRs alone.
VH: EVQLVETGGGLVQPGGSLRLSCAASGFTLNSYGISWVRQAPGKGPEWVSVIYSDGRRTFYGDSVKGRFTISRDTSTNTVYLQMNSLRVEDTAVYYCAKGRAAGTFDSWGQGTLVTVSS
VL: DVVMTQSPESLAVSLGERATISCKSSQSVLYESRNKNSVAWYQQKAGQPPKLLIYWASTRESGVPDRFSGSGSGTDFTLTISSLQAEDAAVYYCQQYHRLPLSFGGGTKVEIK

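The starting antibody came from a phage panning campaign against this peptide. This is the validation round: designs drawn from the data on random variants, tested in the same kind of assay. Group labels follow the data file (Ctrl: baseline library sampled from a position-specific scoring matrix, with some repeated check sequences; Rand: our label for a block that the file lists under HC and that is probably the random mutants of the ten best first-round binders; En: ensemble of fine-tuned language models; GP: Gaussian process model; HC: hill climbing; Gen: genetic algorithm; Gibbs: Gibbs sampling; a sequence that several methods proposed may carry one label only). The assay is AlphaSeq: two haploid yeast populations carry antibody and antigen on their surface. Binding brings cells together so that they mate, and sequencing counts the barcode pairs among the diploids. The ratio of observed to expected reads was calibrated, replicate by replicate, on BCL2-family standards whose Kd was known from biolayer interferometry. Mating was done six times.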

Each variant is given by its three light chain CDRs, as the data file delimits them; those of the parent are KSSQSVLYESRNKNSVA, WASTRES, QQYHRLPLS. Affinities are written as log10 Kd with Kd in nM; a lower number is a better binder. Replicates are averaged; those with no signal do not enter the mean. "no signal" means that the variant was in the library but no mating with the target was seen in any replicate; the authors take this as a sign of poor binding, and no number exists. Entries are sorted by rising average, undetected variants last.

Variant KLSQSFLYESRNKNSVA, DASTRLS, QQYHRLPLS [GP_Gen] gave -0.35 (6 of 6 replicates).
Variant KFSPSYLYESRNKNSVA, NASTRES, QQYHRLPLS [GP_HC] gave -0.26 (6 of 6 replicates).
Variant KSGQGVDYESRNWNSVA, GASTRES, QQYHRLPLS [GP_HC] gave -0.18 (6 of 6 replicates).
Variant KLSQSYLYESRNKNSVA, NASTRES, QSYHRLPLS [GP_Gen] gave 0.00 (6 of 6 replicates).
Variant KVSNSVMLESRNWNAVA, EASTRES, QDYHRLPLS [GP_Gibbs] gave 0.04 (6 of 6 replicates).
Variant KIGTGTNGEKFQSNSVA, QTSTREE, QQYHRLPLS [En_HC] gave 0.05 (6 of 6 replicates).
Variant KVSQSHLYESRNMNSVA, NASTREM, QQYHRLPLS [GP_Gibbs] gave 0.05 (6 of 6 replicates).
Variant KLSQSVLYESRNKNSVA, EADTRES, QQYHRLPLS [GP_Gen] gave 0.06 (6 of 6 replicates).
Variant KLSQSVLYESRNSNSVA, NASTREV, QQYHRLPLS [GP_Gen] gave 0.14 (6 of 6 replicates).
Variant KVQQSVLYGDRNKNSVA, HASTRSS, QDYHRLPLS [GP_Gibbs] gave 0.22 (6 of 6 replicates).
Variant KGSISYLQESRNKNSVA, EASTRES, QQYHRLPLS [GP_HC] gave 0.23 (6 of 6 replicates).
Variant KLSQSNGYESRMKNSVA, NASQRES, QQYHRLPLS [GP_Gibbs] gave 0.33 (6 of 6 replicates).
Variant MFSQMTGLGMKASNSVA, QASTRFE, QQYHRLPLI [En_Gen] gave 0.41 (6 of 6 replicates).
Variant KSSQSVQYDTRNKNSVA, QASTRES, QQYHRLPLS [Ctrl] gave 0.46 (6 of 6 replicates).
Variant KLSQSVLYESRNYNSVA, WASTRES, QQYHRLPLS [Ctrl] gave 0.48 (6 of 6 replicates).
Variant KLSVSWLFQSIEKNSVA, ERSTRES, QDYNRLPLS [En_HC] gave 0.63 (6 of 6 replicates).
Variant RFTEHILGLENKIYAIA, NATKTME, QQYFRLPFA [En_Gibbs] gave 0.65 (6 of 6 replicates).
Variant KLSQSTLYESRNKNSVA, EASTRES, QQYHRLPLS [GP_Gen] gave 0.69 (6 of 6 replicates).
Variant KLSMSDLYEMRNGNSVA, EASTREK, QQYHRLPLS [GP_Gibbs] gave 0.72 (6 of 6 replicates).
Variant TISQVMNTLTREGNNVA, DLQEREK, QQYFRLPLS [En_Gen] gave 0.76 (6 of 6 replicates).
Variant KLSFSHQVESINKSNVA, EMVTRES, QQYDRLPLS [En_HC] gave 0.86 (6 of 6 replicates).
Variant KSSISVLYNSRNKNSVA, DASTRES, QQYVRLPLS [Ctrl] gave 0.90 (6 of 6 replicates).
Variant KFSQTVNTMSVSKSAVA, EMSTRPE, QQYNRLPLS [En_Gen] gave 0.93 (6 of 6 replicates).
Variant MVTQMAMTGMMSKRSVA, NATTRES, QQYHRLPLI [En_Gen] gave 1.01 (6 of 6 replicates).
Variant KSSQSVLYESRNKNSVA, HASTRES, QQYHHLPLS [Ctrl] gave 1.22 (6 of 6 replicates).
Variant MISQLMNMGSFAINSVA, QASLRNE, QQYDRLPLT [En_Gen] gave 1.22 (6 of 6 replicates).
Variant KISMLSNQTFEMSNNVA, EMVTREK, QQYNRLPLS [En_Gen] gave 1.33 (6 of 6 replicates).
Variant KVSGFMRGLMERKDSIA, DNETRSN, QQYDRLPLS [En_Gen] gave 1.33 (6 of 6 replicates).
Variant KSSNSVLYESRNKNSVA, HASTRES, FQYHRLPLS [Ctrl] gave 1.35 (6 of 6 replicates).
Variant MIEEGHAGEIKNSSNIA, SQDQKTD, QQYQRLPLI [En_Gibbs] gave 1.54 (6 of 6 replicates).
Variant KITYMGEHFSTNHSAIA, QASTREQ, QQYHRLPIS [En_HC] gave 1.76 (6 of 6 replicates).
Variant MISQMMNMGQFAINSVA, QASERSN, QQYDRLPLV [En_Gen] gave 1.99 (4 of 6 replicates).
Variant KSSQSVLDESDNKNSVA, AASTREL, QQVHRLPLS [Ctrl] gave 2.12 (1 of 6 replicates).
Variant HITMGMYVSGRHTSNIA, QAEERAK, QQYDRLPLI [En_Gen] gave 2.38 (3 of 6 replicates).
Variant KMSQSGLYESRNKTSVA, WASTRES, QQYHRLPLS [Ctrl] gave 2.69 (6 of 6 replicates).
Variant KSHQSCLYESRNKNSVA, GASHRES, QWFHRLTLS [Rand] gave no signal (0 of 6 replicates).
Variant KSSPSQLYESRNKNSVA, WVSMRES, QQYHRLPLS [Ctrl] gave no signal (0 of 6 replicates).
Variant KSSQSVLYERRNKNSVA, WASTRES, QQYHRLPVS [Ctrl] gave no signal (0 of 6 replicates).
Variant KSSQSVLYESRNKNSVA, WASTRES, LQYHRLPLN [Ctrl] gave no signal (0 of 6 replicates).
Variant ASSQEVLYESRNKNSVA, WAYTRES, QQYHRLPLS [Ctrl] gave no signal (0 of 6 replicates).
Variant KSSQSVLYESRNKNSVA, WASTRES, QQYMRLPLT [Ctrl] gave no signal (0 of 6 replicates).

For reference, 2 entries of the list once more:

KFSQTVNTMSVSKSAVA, EMSTRPE, QQYNRLPLS [En_Gen]: 0.93 (6 of 6 replicates).
KSSPSQLYESRNKNSVA, WVSMRES, QQYHRLPLS [Ctrl]: no signal (0 of 6 replicates).

Nonspecific signal, from three strains lacking the peptide, appeared in 4% of pairings of all light chain designs, centred on 2.64 (5% of these signals below 1.59); values are not corrected for it. The authors' rule: three or more of the six replicates give a measured affinity, fewer mean a poor binder. Values of this round are not directly comparable with the first-round values of the same sequences.

Source: Li et al. 2023 (doi:10.1038/s41467-023-39022-2), MIT Lincoln Laboratory and A-Alpha Bio; data file from the FLAb repository.